Measured values: patent US6462076B2

Sequences of proteins named here, by UniProt entry; tags and fusion partners are left off. Residues count along the entry.
UniProt P43235, 115-329 limits assumed: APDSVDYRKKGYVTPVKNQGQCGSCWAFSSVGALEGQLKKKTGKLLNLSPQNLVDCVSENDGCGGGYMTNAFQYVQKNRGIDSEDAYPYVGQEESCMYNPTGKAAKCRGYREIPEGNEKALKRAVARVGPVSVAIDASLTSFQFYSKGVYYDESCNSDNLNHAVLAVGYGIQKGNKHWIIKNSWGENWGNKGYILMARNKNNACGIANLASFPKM
UniProt P25774, 115-331 limits assumed: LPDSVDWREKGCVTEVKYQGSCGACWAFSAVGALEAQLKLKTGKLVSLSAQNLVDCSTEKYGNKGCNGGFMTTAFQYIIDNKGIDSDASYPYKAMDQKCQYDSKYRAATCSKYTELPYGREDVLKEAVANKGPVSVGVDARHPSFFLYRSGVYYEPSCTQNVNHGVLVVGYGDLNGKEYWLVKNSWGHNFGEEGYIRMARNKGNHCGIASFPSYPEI
UniProt P07711, 114-333 limits assumed: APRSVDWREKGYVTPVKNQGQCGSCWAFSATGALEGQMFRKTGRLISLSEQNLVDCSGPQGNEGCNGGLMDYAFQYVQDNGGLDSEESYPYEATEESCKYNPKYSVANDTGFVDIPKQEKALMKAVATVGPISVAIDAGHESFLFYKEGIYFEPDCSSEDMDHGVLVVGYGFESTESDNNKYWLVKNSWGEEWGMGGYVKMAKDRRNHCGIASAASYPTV

Legend:
[1] = biological target: human recombinant cathepsin K (Homo sapiens, UniProt P43235); test: cathepsin K inhibitory activity, fluorogenic substrate Z-Leu-Arg-MCA; conditions: read-out: Cathepsin K IC50; enzyme 1 nM, substrate 5 μM, pH 5.5, room temperature
Method: (§1) The inhibitory activity of the compounds against cathepsin K, S, L and B was tested at room temperature in 96-wells opaque white polystyrene plates (Costar). The cathepsin K inhibitory activity was tested as follows:
5 μl of an inhibitor diluted in 5 mM sodium phosphate, NaCl 15 mM pH 7.4 containing 1% DMSO (final concentrations: 10-0.0001 μM) were preincubated for 10 min with 35 μl of human recombinant cathepsin K (final concentration: 1 nM) diluted in assay buffer (100 mM sodium acetate pH 5.5 containing 5 mM EDTA and 20 mM cysteine). After addition of 10 μl of the fluorogenic substrate Z-Leu-Arg-MCA diluted in assay buffer (final concentration: 5 μM), increase of fluorescence (excitation at 390 nm and emission at 460 nm) was measured for 7.5 min every 45 sec. The initial velocity (RFU/min) was derived from the linear fit of the 11 reading points.
(§2) The results are given as IC50 values which denote the concentration of the inhibitor at which the enzymatic activity is inhibited by 50%. The IC50 values are determined from a linear regression curve from a logit-log plot.

[2] = biological target: Human recombinant cathepsin S (Homo sapiens, UniProt P25774); test: cathepsin S inhibitory activity, fluorogenic substrate Z-Val-Val-Arg-MCA; conditions: read-out: Cathepsin S IC50; enzyme 0.5 nM, substrate 20 μM, pH 6.5, room temperature
Method: as §1
Cathepsin S inhibitory activity was assayed analogeously to the cathepsin K inhibitory activity, except that the buffer was 100 mM potassium phosphate, 5 mM EDTA, 5 mM DTT (freshly added), 0.01% Triton X-100, pH 6.5 and the fluorogenic substrate was Z-Val-Val-Arg-MCA (Bachem) (final concentration: 20 μM). Human recombinant cathepsin S (Maubach et al., Eur. J. Biochem. 1997, 250, 745-750) was used at a final concentration of 0.5 nM.
as §2

human liver cathepsin L = human liver cathepsin L (Homo sapiens, UniProt P07711); test: cathepsin L inhibitory activity, same conditions as cathepsin K; conditions: read-out: Cathepsin L IC50; enzyme 3 nM, room temperature
Method: as §1
The cathepsin L inhibitory activity was assayed under the same conditions as the cathepsin K inhibitory activity using, human liver cathepsin L (Calbiochem) at a final concentration of 3 nM.
as §2

human liver cathepsin B = human liver cathepsin B (Homo sapiens, UniProt P07858); test: cathepsin B inhibitory activity, same conditions as cathepsin K; conditions: read-out: Cathepsin B IC50; enzyme 1 nM, room temperature
Method: as §1
The cathepsin B inhibitory activity was assayed under the same conditions as the cathepsin K inhibitory activity using human liver cathepsin B (Calbiochem) at a final concentration of 1 nM.
as §2

Row | IC50 [1] [nM] | IC50 [2] [nM] | IC50 (human liver cathepsin L) [nM] | IC50 (human liver cathepsin B) [nM] | SMILES
1 | 5 | > 10000 | 4700 | 4600 | N#C[C@@H](NC(=O)[C@@H]1CCCC[C@H]1NC(=O)OCc1ccccc1)c1cccc(O)c1
2 |  |  | 1200 | 95 | COc1ccc(C(C#N)NC(=O)[C@@H]2CCCC[C@@H]2NC(=O)/C=C/c2ccccc2)cc1OC (relative stereo)
3 | 16 | 1260 | 580 | 440 | COc1cccc(C(C#N)NC(=O)[C@@H]2CCCC[C@@H]2NC(=O)OCc2ccccc2)c1 (relative stereo)
4 | 29 | 2610 | 1380 | 640 | Cc1cccc(C(C#N)NC(=O)[C@@H]2CCCC[C@@H]2NC(=O)OCc2ccccc2)c1 (relative stereo)
5 | 27 | > 10000 | 4690 | 1380 | N#CC(NC(=O)[C@@H]1CCCC[C@H]1NC(=O)OCc1ccccc1)c1ccc2c(c1)OCO2 (relative stereo)
